Assay results as given in article PMC6789442, “Unraveling Hepcidin Plasma Protein Binding: Evidence from Peritoneal Equilibration Testing” (Pharmaceuticals, 2019).

Assays:
[1] = in vivo
Method: (§1) All were centrifuged at 2000 g for 10 min.
(§2) Measurements of urea, creatinine, and IgG were performed on a Cobas C8000 random access analyzer (Roche Diagnostics, Basel, Switzerland).
(§3) This MS-based assay determines total hepcidin (i.e., the sum of bound and unbound fraction). Peptide spectra were generated on a Microflex LT […] laser desorption/ionisation TOF MS platform (Bruker Daltonics, Hamburg, Germany). Hepcidin concentrations were expressed as nmol/L. The lower limit of quantification of this method was 0.5 nM.
Cortisol and testosterone were analyzed by Liquid Chromatography-Mass Spectrometry (LC-MS/MS) after protein precipitation and solid-phase extraction. Internal standard [^2H4]-cortisol and [^13C3]-testosterone (Isoscience, Ambler, PA, USA) was added to 100 µL serum. Subsequently, 300 µL acetonitrile with 0.1% formic acid was added for protein precipitation and 300 µL H2O was added to 200 µL supernatant followed by solid phase extraction (Oasis HLB 1cc, Waters, Milford, MA, USA). […] Two transitions (qualitative and quantitative) were monitored. […]

[2] = in vivo; remark: listed apart in the source
Method: as §1, §2, §3
Testosterone and cortisol in peritoneal dialysate were analyzed by LC-MS/MS after solid-phase extraction. Sample preparation consisted of internal standard addition [13C3]-testosterone (Isoscience, Ambler, PA, USA) and […] (Isoscience) to 1000 µL dialysate and solid phase extraction (SPE) using Oasis® MCX 1cc cartridges (Waters Corp, Milford, MA, USA).
Columns were pre-equilibrated with 1 mL MeOH:IPA (95:5) and subsequently washed with 1 mL H2O. After application of the sample, columns were washed with 1 mL H2O:NH4OH (95:5) and 1 mL MeOH:H2O (20/80) + 2% HCOOH. The 300 µL eluate (MeOH) was dried under a stream of N2 gas, reconstituted in MeOH:H2O (30:70). […] Two mass transitions were monitored for each analyte and the internal standards. The first transition was used for quantification, the second for confirmation. […]

[3] = Peritoneal clearance from peritoneal equilibration test (PET); details: [Dialysate] t = 1 h / [Blood] t = 0 h × dialysate volume / 60 min, total blood concentration, ESRD patients in PET, N 14, 13 testosterone, 10 cortisol, 13 hepcidin

Which “[Plasma] t = 0 h Mean (sd)” value [1] does the source give for “β2-microglobulin: endogenous freely circulating plasma protein” here?
Its value is 18.7 (5.0) mg/L.

And the “[Dialysate] t = 1 h Mean (sd)” value [2]?
Its value is 1.4 (0.9) mg/L.

And the “Peritoneal Clearance t = 0–1 h Mean (sd)” value [3]?
Its value is 2804.0 (1587.8) µL/min.

What does the source list for “Albumin: endogenous plasma protein, freely circulating solute of the curve”?
[Plasma] t = 0 h Mean (sd) [1]: 32.1 (4.9) g/L; [Dialysate] t = 1 h Mean (sd) [2]: 0.2 (0.1) g/L; Peritoneal Clearance t = 0–1 h Mean (sd) [3]: 242.3 (164.2) µL/min
